Data on one compound can be found in ChEMBL document CHEMBL6115015, “Design, synthesis and biological activity of 8-hydroxy modified urolithin A derivatives as phosphodiesterase type II (PDE2) inhibitors” (Bioorg Med Chem, 2025).

Chains of the proteins cited; added tags and fusions are not shown.
UniProt O00408, whole entry: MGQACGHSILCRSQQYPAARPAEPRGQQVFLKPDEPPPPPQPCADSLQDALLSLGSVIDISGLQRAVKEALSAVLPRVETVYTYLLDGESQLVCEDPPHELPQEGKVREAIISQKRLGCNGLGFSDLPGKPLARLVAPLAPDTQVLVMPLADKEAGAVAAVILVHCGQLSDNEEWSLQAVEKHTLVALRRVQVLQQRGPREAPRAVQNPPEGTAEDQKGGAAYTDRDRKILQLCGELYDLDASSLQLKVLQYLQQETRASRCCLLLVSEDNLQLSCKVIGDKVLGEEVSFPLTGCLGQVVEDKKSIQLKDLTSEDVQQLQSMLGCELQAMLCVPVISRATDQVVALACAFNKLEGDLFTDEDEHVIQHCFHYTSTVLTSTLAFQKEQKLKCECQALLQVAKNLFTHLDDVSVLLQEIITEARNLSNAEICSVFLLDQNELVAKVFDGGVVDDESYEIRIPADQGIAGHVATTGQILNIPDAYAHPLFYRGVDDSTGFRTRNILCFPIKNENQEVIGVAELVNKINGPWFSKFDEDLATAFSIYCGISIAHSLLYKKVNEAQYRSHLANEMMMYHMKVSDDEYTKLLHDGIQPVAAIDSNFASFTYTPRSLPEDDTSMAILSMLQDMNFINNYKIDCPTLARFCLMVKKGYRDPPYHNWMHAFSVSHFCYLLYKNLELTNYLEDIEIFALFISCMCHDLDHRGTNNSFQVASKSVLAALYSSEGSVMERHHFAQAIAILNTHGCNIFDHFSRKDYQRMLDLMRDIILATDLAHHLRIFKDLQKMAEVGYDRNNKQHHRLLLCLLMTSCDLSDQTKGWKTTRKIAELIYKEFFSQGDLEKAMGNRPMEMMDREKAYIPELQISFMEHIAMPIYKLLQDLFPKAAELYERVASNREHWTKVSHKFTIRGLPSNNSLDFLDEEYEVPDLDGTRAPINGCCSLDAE

The target in this experiment is cGMP-dependent 3',5'-cyclic phosphodiesterase (Homo sapiens, UniProt O00408). The note with it: time 50.0 min.

Take `O=c1oc2cc(O)ccc2c2ccc(OCC3CCCO3)cc12` (stereo unspecified): the Ratio IC50 was greater than 20.
